According to ChEMBL document CHEMBL2169744, “Discovery and optimization of potent and selective imidazopyridine and imidazopyridazine mTOR inhibitors” (Bioorg Med Chem Lett, 2012):

test: Selectivity ratio of IC50 for PI3Kalpha to IC50 for mTOR

Row | Compound | Ratio IC50
1 | Cc1nc(Nc2cnccn2)cc(-c2c(Nc3cc[nH]n3)nc3cccnn23)n1 | 21
2 | CC(=O)Nc1cc(-c2c(Nc3ccn(C)n3)nc3cccnn23)nc(C)n1 | 30
3 | Cc1cc(-c2ccc3nc(Nc4cc[nH]n4)c(-c4nc(C)nc(N)n4)n3c2)on1 | 71
4 | Cc1nc(N)nc(-c2c(Nc3cc[nH]n3)nc3ccc(-c4ccncc4)cn23)n1 | 55
5 | CC(=O)Nc1cc(-c2c(Nc3cc[nH]n3)nc3cccnn23)nc(C)n1 | 13
6 | Cc1nc(N)nc(-c2c(Nc3cc[nH]n3)nc3ccc(-c4cncnc4)cn23)n1 | 37
7 | Cc1nc(N)nc(-c2c(Nc3ccn(C)n3)nc3ccc(-c4cncnc4)cn23)n1 | 8
8 | Cc1cc(-c2ccc3nc(Nc4cc[nH]n4)c(-c4nc(C)nc(N)n4)n3c2)ccn1 | 64
9 | Cc1nccc(-c2c(Nc3cc[nH]n3)nc3cccnn23)n1 | 21
10 | Cc1nc(N)nc(-c2c(Nc3cc[nH]n3)nc3ccc(-c4ccccc4C)cn23)n1 | 19
11 | CC(=O)Nc1cc(-c2c(Nc3ccn(C)n3)nc3ccccn23)nc(C)n1 | 68
12 | Cc1nc(N)nc(-c2c(Nc3cc[nH]n3)nc3ccc(-c4cccnc4C)cn23)n1 | 48

The remaining lines, values ahead:

Row | Ratio IC50 | Compound
13 | 161 | CC(=O)Nc1cc(-c2c(Nc3ccn(C)n3)nc3ccc(-c4cnco4)cn23)nc(C)n1
14 | 8 | Cc1nc(Nc2cccnc2)cc(-c2c(Nc3cc[nH]n3)nc3cccnn23)n1
15 | 18 | CNc1cc(-c2c(Nc3cc[nH]n3)nc3cccnn23)nc(C)n1
16 | 47 | Cc1nc(N)nc(-c2c(Nc3cc[nH]n3)nc3ccc(-c4cnccc4C)cn23)n1
17 | 9 | CC(=O)Nc1cccc(-c2ccc3nc(Nc4cc[nH]n4)c(-c4nc(C)nc(N)n4)n3c2)c1
18 | 7 | COc1ncccc1-c1ccc2nc(Nc3cc[nH]n3)c(-c3nc(C)nc(N)n3)n2c1
19 | 12 | CC(=O)Nc1cc(-c2c(Nc3cc[nH]n3)nc3ccccn23)nc(C)n1
